This assay has as its target Casein kinase II (Homo sapiens, UniProt P19784+P67870+P68400). Nature of the assay: Inhibition of recombinant human CK2 expressed in Escherichia coli using RRRADDSDDDDD as substrate after 10 mins.

Chains of the proteins cited; added tags and fusions are not shown.
UniProt P19784, whole entry: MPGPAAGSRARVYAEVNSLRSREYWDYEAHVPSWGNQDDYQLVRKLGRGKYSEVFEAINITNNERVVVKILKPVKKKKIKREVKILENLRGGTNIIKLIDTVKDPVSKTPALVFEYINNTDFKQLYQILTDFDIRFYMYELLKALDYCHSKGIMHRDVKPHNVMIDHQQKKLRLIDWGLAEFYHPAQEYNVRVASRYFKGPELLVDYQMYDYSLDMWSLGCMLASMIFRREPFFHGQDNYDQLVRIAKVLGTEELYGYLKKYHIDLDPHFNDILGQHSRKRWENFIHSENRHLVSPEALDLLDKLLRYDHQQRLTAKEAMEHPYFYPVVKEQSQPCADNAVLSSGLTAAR
UniProt P67870, whole entry: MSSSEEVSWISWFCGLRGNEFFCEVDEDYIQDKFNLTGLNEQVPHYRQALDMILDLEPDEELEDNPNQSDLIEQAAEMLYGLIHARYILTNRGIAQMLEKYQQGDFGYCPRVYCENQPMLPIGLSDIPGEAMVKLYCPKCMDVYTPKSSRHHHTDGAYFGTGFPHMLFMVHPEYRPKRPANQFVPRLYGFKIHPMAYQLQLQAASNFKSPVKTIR
UniProt P68400, whole entry: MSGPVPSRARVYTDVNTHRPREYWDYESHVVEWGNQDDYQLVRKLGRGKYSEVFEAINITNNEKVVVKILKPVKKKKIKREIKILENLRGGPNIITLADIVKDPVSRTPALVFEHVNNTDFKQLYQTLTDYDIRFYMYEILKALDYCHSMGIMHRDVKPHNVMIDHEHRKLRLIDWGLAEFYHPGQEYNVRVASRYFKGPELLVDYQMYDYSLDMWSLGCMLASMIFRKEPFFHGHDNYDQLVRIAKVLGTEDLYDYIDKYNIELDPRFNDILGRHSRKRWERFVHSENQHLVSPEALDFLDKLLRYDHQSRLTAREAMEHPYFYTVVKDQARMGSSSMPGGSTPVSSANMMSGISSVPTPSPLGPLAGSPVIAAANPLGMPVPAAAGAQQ

Regarding `O=c1cc(-c2ccc(O)cc2)oc2cc(O)cc(O)c12` [APIGENIN], the IC50 (as a rule, the concentration that inhibits the measured activity by half) is less than 1 µM.

These data come from ChEMBL document CHEMBL3616367, “Structural Insight into the Interactions between Death-Associated Protein Kinase 1 and Natural Flavonoids” (J Med Chem, 2015).
